Patent US20260285866A1, “MODULATORS OF TRPML, THEIR COMPOSITIONS AND METHODS OF USE” (Caraway Therapeutics, Inc., priority 2024, published 2026)
pEC50: −log10 of the molar value.

Chains of the proteins cited; added tags and fusions are not shown.
UniProt Q8TDD5, whole entry: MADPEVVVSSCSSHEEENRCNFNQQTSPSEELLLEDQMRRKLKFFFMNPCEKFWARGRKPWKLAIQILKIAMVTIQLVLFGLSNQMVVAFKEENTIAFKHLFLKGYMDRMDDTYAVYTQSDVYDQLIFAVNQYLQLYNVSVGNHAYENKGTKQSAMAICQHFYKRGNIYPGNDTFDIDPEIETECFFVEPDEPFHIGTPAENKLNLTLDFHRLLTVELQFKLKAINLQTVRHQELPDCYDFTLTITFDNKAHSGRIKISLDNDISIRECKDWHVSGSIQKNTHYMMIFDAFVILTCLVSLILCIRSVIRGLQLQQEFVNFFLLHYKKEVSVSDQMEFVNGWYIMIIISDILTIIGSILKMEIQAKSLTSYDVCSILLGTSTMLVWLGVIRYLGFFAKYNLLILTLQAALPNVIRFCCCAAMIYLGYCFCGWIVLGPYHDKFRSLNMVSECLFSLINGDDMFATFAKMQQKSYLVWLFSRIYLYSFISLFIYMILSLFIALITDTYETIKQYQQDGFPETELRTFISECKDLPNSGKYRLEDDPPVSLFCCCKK
UniProt Q9GZU1, whole entry L15A/L16A/L577A/L578A: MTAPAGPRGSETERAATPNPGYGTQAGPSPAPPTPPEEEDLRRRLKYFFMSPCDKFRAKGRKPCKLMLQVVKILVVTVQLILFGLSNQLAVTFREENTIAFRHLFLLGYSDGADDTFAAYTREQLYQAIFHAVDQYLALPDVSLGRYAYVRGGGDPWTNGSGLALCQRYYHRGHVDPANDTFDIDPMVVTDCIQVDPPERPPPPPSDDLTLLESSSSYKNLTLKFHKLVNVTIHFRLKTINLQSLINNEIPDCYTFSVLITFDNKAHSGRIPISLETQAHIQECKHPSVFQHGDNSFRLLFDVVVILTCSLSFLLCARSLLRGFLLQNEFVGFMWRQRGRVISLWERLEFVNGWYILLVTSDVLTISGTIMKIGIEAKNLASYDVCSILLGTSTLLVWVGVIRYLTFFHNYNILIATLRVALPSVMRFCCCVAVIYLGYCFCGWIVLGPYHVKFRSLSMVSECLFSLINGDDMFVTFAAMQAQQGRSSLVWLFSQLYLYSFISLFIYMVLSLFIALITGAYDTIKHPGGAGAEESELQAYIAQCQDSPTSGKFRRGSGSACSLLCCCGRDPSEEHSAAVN
UniProt Q8IZK6, whole entry: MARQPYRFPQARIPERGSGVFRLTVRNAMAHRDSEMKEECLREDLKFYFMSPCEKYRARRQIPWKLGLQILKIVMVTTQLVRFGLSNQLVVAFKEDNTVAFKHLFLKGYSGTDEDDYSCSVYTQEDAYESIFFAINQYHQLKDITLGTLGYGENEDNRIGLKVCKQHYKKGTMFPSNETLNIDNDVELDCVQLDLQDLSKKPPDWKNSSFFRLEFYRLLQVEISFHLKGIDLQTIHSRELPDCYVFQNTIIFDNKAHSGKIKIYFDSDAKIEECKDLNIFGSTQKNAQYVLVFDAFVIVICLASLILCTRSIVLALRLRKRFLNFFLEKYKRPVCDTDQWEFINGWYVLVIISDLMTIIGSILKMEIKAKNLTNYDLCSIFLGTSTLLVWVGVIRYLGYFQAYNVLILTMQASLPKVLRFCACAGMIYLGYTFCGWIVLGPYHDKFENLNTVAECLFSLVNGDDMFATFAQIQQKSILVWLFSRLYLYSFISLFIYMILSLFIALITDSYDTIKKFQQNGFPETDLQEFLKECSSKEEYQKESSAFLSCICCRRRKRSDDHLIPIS

Experiments:
[1] = target: Human TRPML3 (Homo sapiens, UniProt Q8TDD5); test: Fluorescent TRPML3 assay (as for TRPML1); conditions: read-out: Human TRPML3: EC50; fluorescent calcium assay as for TRPML1, TRPML3 subtype
Description: (§1) HEK-293 Trex cells were stably transfected with a construct consisting of the human coding sequence for TRPML1 cloned into the tet-inducible plasmid pCDNA5 T/O. Mutations were introduced into the TRPML1 sequence to facilitate expression on the cell surface (Silvia Vergarajauregui, Rosa Puertollano Traffic. 2006 March; 7(3): 337-353). Briefly, the cells are cultured in 150 mm round tissue culture dishes containing 20 mL of media. The day before the assay the cells are rinsed with DPBS-Ca-Mg and then treated briefly with Trypsin-EDTA. The Trypsin-EDTA is diluted with growth media, and cells are counted. […]
(§2) 50 microliters of dye-loaded cells are dispensed into each well of the compound assay plate created above. The fluorescence in each well is then determined with an excitation wavelength of 480 nm and an emission wavelength of 540 nm using either a Molecular Devices SpectraMax multimode plate reader or a Hamamatsu FDSS/uCell plate imager.
(§3) The resulting fluorescence for each well is exported as an ascii file and loaded into our LIMS for analysis. The percent activity of each compound at each concentration is determined by comparison to the positive and negative control wells included in each plate. […]
(§4) EC50 values were calculated using a non-linear regression of Prism. […]

[2] = target: Human TRPML1 (Homo sapiens, UniProt Q9GZU1, L15A/L16A/L577A/L578A); test: Fluorescent TRPML1 assay (Fluo4-AM, HEK-293 Trex cells expressing hTRPML1); conditions: read-out: Human TRPML1: EC50, fluorescent calcium assay, doxycycline-induced hTRPML1
Description: Example 27. Fluorescent TRPML Assays
as §1, §2
The resulting fluorescence for each well is exported as an ascii file and loaded into our LIMS for analysis. The percent activity of each compound at each concentration is determined by comparison to the positive and negative control wells included in each plate.
as §4

[3] = target: Human TRPML2 (Homo sapiens, UniProt Q8IZK6); test: Fluorescent TRPML2 assay (as for TRPML1); conditions: read-out: Human TRPML2: EC50; fluorescent calcium assay as for TRPML1, TRPML2 subtype
Description: as §1, §2, §3, §4

C[C@@H]1CN(c2ncnc3c2c(-c2ccccc2)cn3-c2cc(OC(F)(F)F)ccn2)[C@@H](C)CN1C(=O)C(C)(C)O
pEC50 [1]: 5.70 to 6.30 | pEC50 [2]: 6.30 to 7.00 | pEC50 [3]: 5.70 to 6.30
